Measured values from PubChem BioAssay AID588676 (Johns Hopkins Ion Channel Center, 2011).
This is a selection; strong and weak results do not stand in their true shares. Active and inactive are the calls of the source.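 The calls were made as follows: active = calcium-response B-score plate-corrected more than 3 library SD below zero, starting fluorescence within 5 deviations, no agonist response on first addition; inactive = the rest.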

The chains behind the UniProt entries cited, without tags or fusion partners. Where a name states a change or a piece, a line headed by the entry shows the natural chain unless it says otherwise.
UniProt Q96LB2: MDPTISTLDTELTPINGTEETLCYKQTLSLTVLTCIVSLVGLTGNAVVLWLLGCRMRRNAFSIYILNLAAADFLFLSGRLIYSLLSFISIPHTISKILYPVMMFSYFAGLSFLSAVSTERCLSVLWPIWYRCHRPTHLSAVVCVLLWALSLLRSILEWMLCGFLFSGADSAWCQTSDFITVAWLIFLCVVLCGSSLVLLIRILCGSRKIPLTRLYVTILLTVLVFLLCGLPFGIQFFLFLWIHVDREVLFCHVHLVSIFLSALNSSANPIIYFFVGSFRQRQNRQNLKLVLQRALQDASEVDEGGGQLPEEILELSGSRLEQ

The molecules below were run against Mas-related G-protein coupled receptor member X1 (Homo sapiens) (UniProt Q96LB2) (assay: blockade of BAM8-22-evoked MrgX1 calcium response – HEK293 cells, Fluo-4 calcium flux, primary screen (AID 588676;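 also: peak minus trough fluorescence over baseline after final BAM8-22 challenge near maximal dose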)). Conditions: Fluo-4, BAM8-22 antagonism, at 10 µM, active compounds read low.

Structure (SMILES)	B-score
CCc1nc2c(n1)c1c(non1O)c1c2no[n+]1[O-]	active: -4.84
O=[N+]([O-])c1ccc(O)c(/C=N/Nc2ccc([N+](=O)[O-])cc2[N+](=O)[O-])c1	active: -4.84
